By UniProt entry, the sequences of proteins in these tests, tags left out.
UniProt P08173, whole entry: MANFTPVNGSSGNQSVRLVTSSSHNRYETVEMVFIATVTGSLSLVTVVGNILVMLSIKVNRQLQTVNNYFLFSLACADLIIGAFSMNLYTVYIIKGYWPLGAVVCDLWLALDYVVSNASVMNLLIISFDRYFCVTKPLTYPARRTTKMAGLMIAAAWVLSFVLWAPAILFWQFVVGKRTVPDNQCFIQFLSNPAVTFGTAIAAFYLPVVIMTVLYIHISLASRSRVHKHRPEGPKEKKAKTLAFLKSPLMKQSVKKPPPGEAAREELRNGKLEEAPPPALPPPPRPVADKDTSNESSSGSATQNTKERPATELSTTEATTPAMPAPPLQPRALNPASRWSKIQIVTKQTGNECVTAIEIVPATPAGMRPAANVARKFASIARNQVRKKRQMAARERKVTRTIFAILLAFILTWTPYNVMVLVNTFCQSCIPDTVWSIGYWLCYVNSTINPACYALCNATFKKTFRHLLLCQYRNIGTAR

In patent US9056876B2, “Substituted 1H-pyrazolo[3′,4′,4,5]thieno[2,3-b]pyridin-3-amine analogs as positive allosteric modulators of the muscarinic acetylcholine receptor M4” (VANDERBILT UNIVERSITY, priority 2011, dated 2015):

Target: mAChR M4 (UniProt P08173)
Experiment: mAChR M4 cell-based functional assay (calcium mobilization, Fluo-4, FDSS)
Description: Chinese hamster ovary (CHO-K1) cells stably expressing rat (r)M1 were purchased from the American Type Culture Collection and cultured according to their indicated protocol. CHO cells stably expressing human (h)M2, hM3, and hM5 were described previously (Levey A I, et al., (1991) J Neurosci 11:3218-3226.); hM1 and hM4 cDNAs were purchased from Missouri S&T cDNA Resource; rM4 cDNA was provided by T. I. Bonner (National Institutes of Health, Bethesda, Md.). rM2 and rM3 were cloned from a rat brain cDNA library and sequence verified. hM1, rM2, rM3, hM4, and rM4 cDNAs were used to stably transfect CHO-K1 cells purchased from the American Type Culture Collection using Lipofectamine-2000. To make stable rM2, hM2, rM3, hM4, and rM4 cell lines for use in calcium mobilization assays, these cells also were stably transfected with a chimeric G-protein (Gqi5) (provided by B. R. Conklin, University of California, San Francisco) using Lipofectamine 2000. rM1, hM1, rM3, hM3, rM5, and hM5 cells were grown in Ham's F-12 medium containing 10% heat-inactivated fetal bovine serum (FBS), 20 mM HEPES, and 50 µg/mL G418 sulfate. rM2-Gqi5, hM2-Gqi5, and hM4-Gqi5 cells were grown in the same medium also containing 500 µg/mL Hygromycin B. Stable rM4-Gqi5 cells were grown in DMEM containing 10% heat-inactivated FBS, 20 mM HEPES, 400 µg/mL G418 sulfate, and 500 µg/mL Hygromycin B. […]
Calcium flux was measured using the Functional Drug Screening System (FDSS) 6000 (Hamamatsu Corporation, Tokyo, Japan) as an increase in the fluorescent static ratio. […] Agonist activity was analyzed as a concentration-dependent increase in calcium mobilization upon compound addition. Positive allosteric modulator activity was analyzed as a concentration-dependent increase in the EC20 acetylcholine response. Antagonist activity was analyzed as a concentration-dependent decrease in the EC80 acetylcholine response. […]

- Emax (%)* (% ACh maximum at 30 μM): 70%
- pEC50 (positive allosteric modulator activity, EC20 acetylcholine response, CHO-K1 cells): 6.26
- EC50 (positive allosteric modulator activity: concentration-dependent increase in the EC20 acetylcholine response, CHO-K1 cells, >10 μM estimated for low potency (no plateau)): 550 nM
Structure (SMILES): Cc1cc(C)c2c(n1)sc1c(NCC(C)C)nn(C)c12
